Experimental data as given in US20250236627A1, “CERTAIN OCTAHYDROFURO[3,4- B]PYRAZINES AS GLP-1 RECEPTOR MODULATORS” (ASTRAZENECA AB, priority 2021, published 2025).

Sequences of proteins named here, by UniProt entry; tags and fusion partners are left off.
UniProt Q14432, whole entry: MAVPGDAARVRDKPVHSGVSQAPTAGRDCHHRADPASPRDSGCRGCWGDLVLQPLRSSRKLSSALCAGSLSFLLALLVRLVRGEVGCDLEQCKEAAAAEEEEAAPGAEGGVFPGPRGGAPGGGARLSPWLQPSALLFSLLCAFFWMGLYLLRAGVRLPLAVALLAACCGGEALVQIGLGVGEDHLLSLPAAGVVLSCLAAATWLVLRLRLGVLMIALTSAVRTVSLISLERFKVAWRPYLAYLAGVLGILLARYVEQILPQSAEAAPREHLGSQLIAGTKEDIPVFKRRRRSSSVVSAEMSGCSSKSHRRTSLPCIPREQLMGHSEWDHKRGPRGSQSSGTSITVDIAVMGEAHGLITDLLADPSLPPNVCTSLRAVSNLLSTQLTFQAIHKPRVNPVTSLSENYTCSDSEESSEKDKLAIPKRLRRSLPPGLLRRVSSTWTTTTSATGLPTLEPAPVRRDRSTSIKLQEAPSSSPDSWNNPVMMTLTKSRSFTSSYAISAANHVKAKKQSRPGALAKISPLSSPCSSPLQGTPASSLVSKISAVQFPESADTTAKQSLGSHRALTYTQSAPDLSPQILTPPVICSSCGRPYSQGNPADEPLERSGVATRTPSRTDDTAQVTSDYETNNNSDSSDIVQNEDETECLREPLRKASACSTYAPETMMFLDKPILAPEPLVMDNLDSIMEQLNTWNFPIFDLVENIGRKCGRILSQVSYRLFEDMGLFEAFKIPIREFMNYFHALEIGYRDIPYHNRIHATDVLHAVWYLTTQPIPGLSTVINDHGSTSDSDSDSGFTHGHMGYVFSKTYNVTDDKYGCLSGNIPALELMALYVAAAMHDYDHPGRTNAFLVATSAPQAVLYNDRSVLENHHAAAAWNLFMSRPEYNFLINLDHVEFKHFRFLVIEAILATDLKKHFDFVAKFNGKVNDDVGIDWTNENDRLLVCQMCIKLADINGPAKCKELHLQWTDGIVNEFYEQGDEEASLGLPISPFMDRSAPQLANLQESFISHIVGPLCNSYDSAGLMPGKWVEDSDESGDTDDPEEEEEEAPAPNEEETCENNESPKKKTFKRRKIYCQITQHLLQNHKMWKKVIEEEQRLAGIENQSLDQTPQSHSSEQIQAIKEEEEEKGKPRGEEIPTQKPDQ

Target: human phosphodiesterase-3A (Homo sapiens, UniProt Q14432)
Test: PDE3 Assay
Details: read-out: PDE3 IC50; human recombinant enzyme expressed in Sf9 cells; formation of 5′AMP from cAMP
Experimental: Evaluation of the effects of compounds on the activity of the human phosphodiesterase-3A is quantified by measuring the formation of 5′AMP from cAMP using a human recombinant enzyme expressed in Sf9 cells.
The test compound, reference compound or water (control) are added to a buffer containing 40 mM Tris/HCl (pH 7.4) and 8 mM MgCl2, 450 nM cAMP and 0.25 μCi [^3H]cAMP.
Thereafter, the reaction is initiated by addition of the enzyme (about 1 U) and the mixture is incubated for 20 min at 22° C.
For basal control measurements, the enzyme is omitted from the reaction mixture.
Following incubation SPA beads are added. After 30 min at 22° C. under shaking, the amount of [^3H]5′AMP is quantified with a scintillation counter (Topcount, Packard).
The results are expressed as a percent inhibition of the control enzyme activity. The standard inhibitory reference compound is milrinone (CAS number 78415-72-2), which is tested in each experiment at several concentrations to obtain an inhibition curve from which its IC50 value is calculated.

pIC50: 5.30
Compound: Cc1cc(Cc2nc3ccc(C(=O)O)cc3n2C[C@@H]2CCO2)c(F)cc1-c1cccc(OCc2ccc(C#N)cc2F)n1

pIC50: −log10 of the molar value.
